As a reminder, the Ki is a dissociation constant, usually derived from enzyme kinetics or from competition with a known ligand.

By UniProt entry, the sequences of proteins in these tests, tags left out. Residues count along the entry.
UniProt P22748, 19-284 limits assumed: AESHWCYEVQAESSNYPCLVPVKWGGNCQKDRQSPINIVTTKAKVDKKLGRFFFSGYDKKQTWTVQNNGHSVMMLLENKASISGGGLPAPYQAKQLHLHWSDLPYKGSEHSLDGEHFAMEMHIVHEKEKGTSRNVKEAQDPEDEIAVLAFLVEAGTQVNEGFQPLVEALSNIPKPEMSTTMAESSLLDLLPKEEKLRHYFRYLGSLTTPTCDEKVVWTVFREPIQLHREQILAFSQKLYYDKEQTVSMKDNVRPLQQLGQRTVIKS

We go through one compound from ChEMBL document CHEMBL1138646, “Carbonic anhydrase inhibitors: inhibition of the membrane-bound human isozyme IV with anions” (Bioorg Med Chem Lett, 2004).

This assay addresses Carbonic anhydrase 4 (Homo sapiens, UniProt P22748). Kind of assay: Inhibition constant against human carbonic anhydrase isozyme hCA IV.

For the compound `O=[As](O)(O)c1ccccc1`, the affinity, expressed as Ki, was 870 nM.
